Experimental data from publication PMC3559007 (Neuron, 2013).
Changes are numbered by the printed parent chain.

Key:
Hv1 F150A = target: T1, Hv1 F150A (Homo sapiens, UniProt Q96D96, F150A); test: Inside-out patch clamp, inhibition of Hv1 F150A mutant; type: cell-based
T1 sequence (Q96D96 1-273 F150A): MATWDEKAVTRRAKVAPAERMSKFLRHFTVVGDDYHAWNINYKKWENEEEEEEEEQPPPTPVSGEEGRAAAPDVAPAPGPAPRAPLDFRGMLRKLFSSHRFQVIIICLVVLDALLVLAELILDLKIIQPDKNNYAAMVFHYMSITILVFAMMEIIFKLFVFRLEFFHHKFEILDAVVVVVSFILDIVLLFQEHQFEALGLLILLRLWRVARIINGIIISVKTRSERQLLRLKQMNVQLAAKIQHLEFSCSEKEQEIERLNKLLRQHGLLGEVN

Hv1 F150C = target: T2, Hv1 F150C (Homo sapiens, UniProt Q96D96, F150C); test: Inside-out patch clamp, inhibition of Hv1 F150C mutant; type: cell-based
T2 sequence (Q96D96 1-273 F150C): T1 sequence (Q96D96 1-273 F150A) with A150C

Hv1 F150W = Hv1 F150W (Homo sapiens, UniProt Q96D96, F150W)
WT-WT linked Hv1 dimers = WT-WT linked Hv1 dimers (Homo sapiens, UniProt Q96D96); settings: 40 µM 2GBI, +120 mV

N=C(N)Nc1nc2ccccc2[nH]1 [Compound 7, 2-guanidinobenzimidazole]
Difference in binding affinity between F150A and wild type channels (Hv1 F150A): large difference | Change in affinity for blocker, F150C vs wild type (Hv1 F150C): increased the affinity for the blocker, but to a lesser extent | Dose dependence of block, F150W vs wild type (Hv1 F150W): very similar to the wild type channel | Inhibition of the current (WT-WT linked Hv1 dimers): 50%
